System: syngeneic splenocytes loaded with SIINFEKL
Assay: Peptide-specific T cell-mediated cytotoxicity in vivo, VITAL assay, […] (FIGS. 3, 4)
Design: species or system mice
Protocol: The compounds are injected to give the equivalent molar dose of […] (SEQ ID NO:262) peptide, in each case of 0.571 nmol. […] To discriminate the targets from host tissue, the injected cells are labelled with the fluorescent dye carboxyfluorescein succinimidyl ester (CFSE). A cohort syngeneic splenocytes (without peptide) labelled with the fluorescent dye cell tracker orange are also injected to serve as controls. Killing is defined as the percentage of peptide-loaded targets killed relative to control cells. Each treatment group contained 5 animals. Control animals are injected with the diluent phosphate-buffered saline (PBS).
Cytotoxic activity is assessed as in FIG. 3. Mean percentage of killing per group±SEM are shown.

With “(2S,3S,4R)-1-O-α-D-Galactopyranosyl-4-hexacosanoyl-2-((4-(2-(FFRKSIINFEKL)-2-oxoethoxy)imino)pentanoyloxy)methoxycarbonylamino) octadecane-1,3,4-triol [CN152]” the “cytotoxic capacity of SIINFEKL-specific T cells (killing of peptide-loaded target cells in vivo)” value (0.571 nmol intravenously, targets injected 7 days after vaccination, FIGS. 3 and 4) was “greater cytotoxic capacity” and the “dependence of the cytotoxic T cell response on CD1d / NKT cells” value (CD1d-deficient mice, FIG. 3) was “CD1d dependent”.
